Some tests of the compounds listed are not included; inactive here does not mean inactive elsewhere. Activity calls are given as the source filed them.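 How the source made its calls: active means at least one rat sex group has a carcinogenic potency value and tumor site recorded; inconclusive means only rat studies were judged inadequate by the national testing program; inactive means no potency or tumor site, with negative rat experiments.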
Tested on: rat chronic carcinogenicity bioassay, TD50
Assay: DSSTox (CPDBAS) Carcinogenic Potency Database Summary Rat Bioassay Results
Settings: TD50_Rat_Note: no positive results; TargetSites_Rat_Female: no positive results
Description: The Carcinogenic Potency Database (CPDB) is a unique and widely used international resource of the results of over 6500 chronic, long-term animal cancer tests on over 1500 chemical substances. The CPDB provides easy access to the bioassay literature, with qualitative and quantitative analyses of both positive and negative experiments that have been published over the past 50 years in the general literature and by the National Cancer Institute/National Toxicology Program. The CPDB standardizes the diverse literature of cancer bioassays that vary widely in protocol, histopathological examination and nomenclature, and in the published author's choices of what information to provide in their papers. Results are reported in the CPDB for tests in rats, mice, hamsters, dogs, and nonhuman primates, and are based on the most positive result among all experiments for each sex-species. The DSSTox CPDBAS (all species) file incorporates data from the CPDB Summary Tables for the full list of over 1500 chemical substances tested in at least one species. Summary bioassay results for Rat (TD50, tumor sites, male, female, both sexes) are provided in the CPDB Summary Tables and the DSSTox CPDBAS file for over 1200 chemical substances.
TD50 is a standardized quantitative measure of carcinogenic potency (analogous to an LD50) and is reported in the CPDB Summary Table for each species. […]

SMILES: N#CC(C#N)=Cc1ccccc1Cl
- outcome: inactive; no positive results

Reference: PubChem BioAssay AID1208 (EPA DSSTox, 2008)
